{"source": "patent US5792851A", "about": "“Human prostaglandin transporter” (Albert Einstin College of Medicine of Yeshiva University, a …, priority 1996, dated 1998)", "target": "human prostaglandin transporter (hPGT) (Homo sapiens, UniProt Q92959)", "assay": "Inhibition of hPGT-mediated tracer PGE2 uptake in transfected HeLa cells", "format": "cell-based", "settings": "0.1 µM", "data": [{"smiles": "CCCCC[C@H](O)/C=C/[C@H]1[C@H](O)CC(=O)[C@@H]1C/C=C\\CCCC(=O)O", "note": "[PGE2]", "values": [{"measurement": "percent of the control 10-min tracer PGE2 uptake", "value": "45.2 ± 1.4"}]}]}
